# Key:
# The chains behind the UniProt entries cited, without tags or fusion partners.
# UniProt O43613, whole entry: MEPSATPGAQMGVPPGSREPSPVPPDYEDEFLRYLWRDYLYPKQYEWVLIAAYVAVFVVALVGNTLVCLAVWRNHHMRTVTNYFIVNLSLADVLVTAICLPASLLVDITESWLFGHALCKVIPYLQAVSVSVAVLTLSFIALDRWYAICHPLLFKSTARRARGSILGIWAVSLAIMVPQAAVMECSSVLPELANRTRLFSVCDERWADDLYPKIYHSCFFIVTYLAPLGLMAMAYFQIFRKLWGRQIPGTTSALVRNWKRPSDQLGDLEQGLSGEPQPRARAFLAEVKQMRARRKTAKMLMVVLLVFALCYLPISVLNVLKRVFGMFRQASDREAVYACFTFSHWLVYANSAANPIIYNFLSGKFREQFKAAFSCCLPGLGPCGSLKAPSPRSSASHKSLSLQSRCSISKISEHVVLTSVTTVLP
# [1] = biological target: T1, Orexin/Hypocretin receptor type 1 (Homo sapiens, UniProt O43613); experiment: Displacement of [3H]N-cyclobutyl-5-methyl-N-(2-(1-methyl-1H-benzo[d]imidazol-2-ylthio)ethyl)-2-(2H-1,2,3-triazol-2-yl)benzamide from human OX1R expressed in CHO cells after 20 hrs by scintillation counting; assay type: cell-based
# [2] = biological target: T1, Orexin/Hypocretin receptor type 1; experiment: Displacement of [3H](S)-N-(biphenyl-2-yl)-1-(2-(1-methyl-1H-benzo[d]imidazol-2-ylthio)acetyl)pyrrolidine-2-carboxamide from human OX1R expressed in CHO cells after 3 hrs by scintillation counting; assay type: cell-based
smiles,measurement,setting,value
Cc1ccc(-n2nccn2)c(C(=O)N2CCN(c3nc4cc(Cl)ccc4o3)CC[C@H]2C)c1 [SUVOREXANT],Ki,[1],550 pM
same,Ki,[2],550 pM
